From patent publication US8778935B2 (Centro Nacional de Investigaciones Oncologicas (CNIO), priority 2009, dated 2014)

Amino acid sequences for entries named in this document (tags omitted).
UniProt P42336, whole entry: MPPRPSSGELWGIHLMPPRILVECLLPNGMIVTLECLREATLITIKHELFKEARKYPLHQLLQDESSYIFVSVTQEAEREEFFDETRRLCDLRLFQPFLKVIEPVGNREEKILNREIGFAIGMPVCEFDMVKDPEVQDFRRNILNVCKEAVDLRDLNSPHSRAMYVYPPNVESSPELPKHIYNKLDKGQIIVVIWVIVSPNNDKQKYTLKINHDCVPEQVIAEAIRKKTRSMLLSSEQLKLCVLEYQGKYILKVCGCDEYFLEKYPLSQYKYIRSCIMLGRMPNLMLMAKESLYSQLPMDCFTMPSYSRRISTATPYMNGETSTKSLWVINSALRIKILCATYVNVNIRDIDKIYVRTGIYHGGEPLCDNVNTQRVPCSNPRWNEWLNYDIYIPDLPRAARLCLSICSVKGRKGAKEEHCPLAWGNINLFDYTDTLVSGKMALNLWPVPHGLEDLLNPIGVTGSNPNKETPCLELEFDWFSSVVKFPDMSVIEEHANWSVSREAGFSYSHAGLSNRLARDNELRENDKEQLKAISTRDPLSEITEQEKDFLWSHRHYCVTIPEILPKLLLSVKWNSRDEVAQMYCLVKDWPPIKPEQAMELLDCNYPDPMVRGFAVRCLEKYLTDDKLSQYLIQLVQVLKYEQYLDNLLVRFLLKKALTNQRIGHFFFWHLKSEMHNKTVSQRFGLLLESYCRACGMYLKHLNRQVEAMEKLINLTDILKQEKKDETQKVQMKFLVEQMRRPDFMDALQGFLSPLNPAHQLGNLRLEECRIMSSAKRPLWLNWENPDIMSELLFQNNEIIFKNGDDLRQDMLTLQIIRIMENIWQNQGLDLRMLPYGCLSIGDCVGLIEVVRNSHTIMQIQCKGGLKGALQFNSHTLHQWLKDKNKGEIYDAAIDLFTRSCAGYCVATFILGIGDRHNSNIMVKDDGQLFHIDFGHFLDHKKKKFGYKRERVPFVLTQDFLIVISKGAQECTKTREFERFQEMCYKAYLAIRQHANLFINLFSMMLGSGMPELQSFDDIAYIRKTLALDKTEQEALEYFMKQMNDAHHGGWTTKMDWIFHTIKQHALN
UniProt P27986, whole entry partner: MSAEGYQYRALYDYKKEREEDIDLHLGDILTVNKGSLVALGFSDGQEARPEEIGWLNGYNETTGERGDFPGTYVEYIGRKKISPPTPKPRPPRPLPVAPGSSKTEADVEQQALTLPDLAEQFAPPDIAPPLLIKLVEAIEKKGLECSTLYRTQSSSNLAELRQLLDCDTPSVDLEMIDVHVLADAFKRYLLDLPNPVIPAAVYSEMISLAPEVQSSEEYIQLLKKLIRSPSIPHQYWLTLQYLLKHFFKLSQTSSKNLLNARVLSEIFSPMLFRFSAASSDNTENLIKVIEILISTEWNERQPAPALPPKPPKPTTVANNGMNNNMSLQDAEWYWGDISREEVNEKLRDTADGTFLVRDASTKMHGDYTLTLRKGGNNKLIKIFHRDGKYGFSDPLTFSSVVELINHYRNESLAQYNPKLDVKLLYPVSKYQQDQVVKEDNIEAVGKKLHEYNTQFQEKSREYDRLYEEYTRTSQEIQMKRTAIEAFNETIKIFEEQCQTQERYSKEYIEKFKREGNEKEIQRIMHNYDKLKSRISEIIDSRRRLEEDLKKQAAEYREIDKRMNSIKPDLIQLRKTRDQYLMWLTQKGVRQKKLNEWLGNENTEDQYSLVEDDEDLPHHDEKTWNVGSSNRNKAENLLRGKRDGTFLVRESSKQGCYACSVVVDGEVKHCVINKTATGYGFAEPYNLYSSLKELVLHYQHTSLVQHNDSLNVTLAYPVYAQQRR

Molecular target: PI3K (p110α/p85α) (Homo sapiens, UniProt P42336)
Experiment: PI3K Activity Assay (ADP Hunter Plus)
Format: biochemical
Conditions: read-out: PI3Kα IC50; quantitative results of Table 4

IC50: 3000 nM
SMILES: CS(=O)(=O)N1CC2(CCN(Cc3cn4cc(-c5cccc6[nH]ncc56)nc(N5CCOCC5)c4n3)CC2)C1
